Measurements as given in patent publication US8614290B2, “Cancer imaging and treatment” (Technische Universitat Munchen, priority 2007, dated 2013).
Values belong to the molecule of their own block, whether it stands above or below them.

Protein sequences, listed by entry. Tags and fused reporters are not part of them.
UniProt P61073, whole entry, looked up: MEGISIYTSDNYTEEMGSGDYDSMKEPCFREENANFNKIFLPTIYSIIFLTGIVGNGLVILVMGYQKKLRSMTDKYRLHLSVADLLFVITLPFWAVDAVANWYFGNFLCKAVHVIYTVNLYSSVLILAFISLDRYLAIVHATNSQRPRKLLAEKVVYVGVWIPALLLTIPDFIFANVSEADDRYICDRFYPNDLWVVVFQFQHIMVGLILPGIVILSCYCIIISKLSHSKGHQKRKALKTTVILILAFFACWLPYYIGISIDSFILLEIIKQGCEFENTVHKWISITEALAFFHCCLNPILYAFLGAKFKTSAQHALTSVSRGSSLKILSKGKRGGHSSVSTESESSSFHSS

Legend:
CXCR4 [1] = molecular target: T1, CXCR4 (Homo sapiens, UniProt P61073); assay: ^125I-CPCR4 | CMS5/CXCR4; parameters: Jurkat cells that endogenously express the CXCR4 receptor; endogenous in cells; host or cells: Jurkat cells
CXCR4 [2] = molecular target: T1, CXCR4; assay: Competitive receptor binding assay on Jurkat cells with 125I-CPCR4 as tracer; parameters: Jurkat cells that endogenously express the CXCR4 receptor; endogenous in cells; host or cells: Jurkat cells
Procedure: For receptor binding assays cells were resuspended in PBS/0.2% BSA. A total of 200 μl of the suspension containing 400,000 Jurkat cells were incubated with 25 μl of the tracer solution (containing 3.1 kBq, approx. 0.1 nM) and 25 μl of the diluent or the competitor at different concentrations. […] After shaking for 2 h at room temperature, the incubation was terminated by centrifugation at 1300 rpm for 5 min. Cell pellets were washed once with cold PBS followed by a second centrifugation step. Cell bound radioactivity was determined by using a gamma counter. Experiments were repeated 2-3 times in triplicates. IC50 values of the compounds were calculated by nonlinear regression using GraphPad Prism (GraphPad Prism 4.0 Software, Inc., San Diego, Calif., USA). Each data point is the average of three determinations.

SMILES: N=C(N)NCCC[C@@H]1NC(=O)[C@H](CCCNC(=N)N)NC(=O)[C@@H](Cc2ccc(O)cc2)NC(=O)CNC(=O)[C@H](Cc2ccc3ccccc3c2)NC1=O [CPCR4, cyclo[D-Tyr-Arg-Arg-Nal-Gly]]
- IC50 (CXCR4 [1]): 6.8 nM

- IC50 (CXCR4 [2]): 4.3 ± 0.3 nM
SMILES: N=C(N)NCCC[C@@H]1NC(=O)[C@H](CCCNC(=O)CCCC(=O)NCCC[C@@H]2NC(=O)[C@@H](Cc3ccc(O)cc3)NC(=O)CNC(=O)[C@H](Cc3ccc4ccccc4c3)NC(=O)[C@H](CCCNC(=N)N)NC2=O)NC(=O)[C@@H](Cc2ccc(O)cc2)NC(=O)CNC(=O)[C@H](Cc2ccc3ccccc3c2)NC1=O [Code A21, glutaric acid-(cyclo[D-Tyr-Orn-Arg-2-Nal-Gly])2]

SMILES: N=C(N)NCCC[C@@H]1NC(=O)[C@H](CCCNC(N)=O)NC(=O)[C@@H](Cc2ccc(O)cc2)NC(=O)CNC(=O)[C@H](Cc2ccc3ccccc3c2)NC1=O [OD27, cyc[Nal-Gly-D-Tyr-Cit-Arg]]
- IC50 (CXCR4 [2]; Table 4, Orn-Nδ and/or Orn-Nα-modified pentapeptides, read-out: IC50): 35 ± 7 nM
